System: ES cell line H9 (WA09)
Assay: Fluorescent immunostaining of undifferentiation/differentiation markers, hESF9 medium with albumin and/or oleic acid
Format: cell-based, human
Description: Bovine albumin (bovine serum albumin: BSA) has been used in many conventional media such as the aforementioned hESF9 medium. Since it is an animal-derived material, its substitution with an animal product-free ingredient was studied. […] Using the undifferentiation markers SSEA-4, TRA-1-60, and Nanog, and the differentiation marker SSEA-1, effects of adding bovine albumin or recombinant human albumin (rHSA, from Millipore Corporation) and/or oleic acid on the maintenance of an undifferentiated state of the ES cells were studied. When adding oleic acid and albumin, they were added in the form of albumin-conjugated oleic acid. Among the ingredients of the hESF9 medium, BSA and oleic acid were substituted with BSA-conjugated oleic acid (medium condition 1), rHSA alone (medium condition 2), or rHSA-conjugated oleic acid (medium condition 3). A medium in which none of BSA, rHSA, or oleic acid was added to the hESF9 medium was used as a negative control (medium condition 4). Cell line H9 (WA09) was cultured under these conditions. Cell line H9 (WA09) being cultured was cultured in hESF9 medium for 1 passage, subjected to fluorescent immunostaining, and analyzed on the percentage of positive cells with expression. The cells were fixed with 4% paraformaldehyde (PFA) in PBS at room temperature for 15 minutes, blocked with bovine serum, and then immunostained using anti-SSEA-4 antibody (from Abcam plc.) and AlexaFluor-labeled anti-mouse IgG (from Invitrogen Corporation); anti-TRA-1-60 antibody (from Abcam plc.) and AlexaFluor-labeled anti-mouse IgM (from Invitrogen Corporation); or anti-SSEA-1 antibody (from Abcam plc.) and AlexaFluor-labeled anti-mouse IgM (from Invitrogen Corporation). After the blocking with bovine serum comprising Triton X, the cells were treated with immunostaining with anti-Nanog antibody (from Cell Signaling Technology, Inc.) and anti-OCT4 antibody (from Santa Cruz Biotechnology, Inc.), reacted with an AlexaFluor-labeled secondary antibody, and observed under fluorescent microscope.
Under the medium condition (3), cultured cells of cell line H9 (WA09) at passage 3 were examined with fluorescent immunostaining using the undifferentiation markers SSEA-4, Tra1-60, and Nanog, and the differentiation marker SSEA-1.

[1] = medium condition (3), passage 3, FIG. 3

Substance: rHSA: recombinant human albumin from Millipore Corporation, added alone to hESF9 medium
- percentage of positive cells expressing the differentiation marker SSEA-1 (cultured for 1 passage, FIG. 2): significantly (* mark) increased
- percentage of positive cells expressing the undifferentiation marker SSEA-4, TRA-1-60, or Nanog (cultured for 1 passage, FIG. 2): does not affect

Substance: rHSA conjugated with oleic acid: 9.4 μg/mL oleic acid complexed with 1 mg/mL recombinant human albumin
- percentage of positive cells expressing the differentiation marker SSEA-1 (cultured for 1 passage, FIG. 2): decreases the expression of differentiation markers
- expression of the differentiation marker SSEA-1 [1]: low expression
- expression of undifferentiation markers SSEA-4, Tra1-60, and Nanog [1]: high expression
